Assay results: publication PMC12903857
Where “and” joins values, the source holds several entries; their conditions need not be identical. Equal entries are not always repeated. Where two headings read alike, the source gives them in different places. Non-standard residues stand in square brackets, D forms with d. Residues, ends and D or L forms follow the SMILES beside them. pS = N[C@@H](COP(=O)(O)O)C(=O)O

Molecular target: T1, 14-3-3σ (Homo sapiens, UniProt P31947)
T1 sequence (P31947 1-248): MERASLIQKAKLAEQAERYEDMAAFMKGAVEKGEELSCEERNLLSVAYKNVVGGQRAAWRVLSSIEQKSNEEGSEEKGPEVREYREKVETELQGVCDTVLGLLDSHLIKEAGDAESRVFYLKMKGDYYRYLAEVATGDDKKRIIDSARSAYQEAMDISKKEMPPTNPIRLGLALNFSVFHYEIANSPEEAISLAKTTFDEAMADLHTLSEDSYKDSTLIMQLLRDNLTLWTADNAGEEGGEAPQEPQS
Assay: SPR, binary interaction of 12-mer RAF peptides
Details: for kd, single replicates: binary, kinetic fit, Replicate 1 and 2; for koff: read-out: kd / koff, Average ± SD, binary, kinetic fit, n = 2

[1] = read-out: ka / kon, Average ± SD, binary, kinetic fit, n = 2
[2] = read-out: ka, single replicates, binary, kinetic fit, Replicate 1 and 2

kd, single replicates | kon [1] | koff | kon [2] | SMILES
0.2444 s⁻¹ and 0.2914 s⁻¹ | 130000 M⁻¹ s⁻¹ | 0.268 s⁻¹ | – | CC[C@H](C)[C@H](NC(=O)[C@H](CCCNC(=N)N)NC(C)=O)C(=O)N[C@@H](CCCNC(=N)N)C(=O)N[C@@H](CO)C(=O)N[C@H](C(=O)N[C@@H](COP(=O)(O)O)C(=O)N[C@H](C(=O)N1CCC[C@H]1C(=O)N[C@@H](CC(N)=O)C(=O)N[C@H](C(=O)N[C@@H](Cc1c[nH]cn1)C(=O)N[C@@H](CCSC)C(N)=O)C(C)C)[C@@H](C)O)[C@@H](C)O [A-RAF (12-mer), RIRST{pS}TPNVHM] (Ac-RIRST[pS]TPNVHM-NH2; N-terminus and C-terminus assumed)
0.3206 s⁻¹ and 0.2998 s⁻¹ | 110000 M⁻¹ s⁻¹ | 0.31 s⁻¹ | 121000 M⁻¹ s⁻¹ | CC[C@H](C)[C@H](NC(=O)[C@H](Cc1c[nH]cn1)NC(=O)[C@@H](NC(=O)[C@H](CC(N)=O)NC(=O)[C@@H]1CCCN1C(=O)[C@H](C)NC(=O)[C@H](COP(=O)(O)O)NC(=O)[C@H](CO)NC(=O)[C@H](CO)NC(=O)[C@H](CCCNC(=N)N)NC(=O)[C@H](CC(=O)O)NC(=O)[C@H](CCCNC(=N)N)NC(C)=O)C(C)C)C(N)=O [B-RAF (12-mer), RDRSS{pS}APNVHI] (Ac-RDRSS[pS]APNVHI-NH2; N-terminus and C-terminus assumed)
0.3201 s⁻¹ and 0.3835 s⁻¹ | 140000 M⁻¹ s⁻¹ | – | 114000 M⁻¹ s⁻¹ | CSCC[C@H](NC(=O)[C@H](Cc1c[nH]cn1)NC(=O)[C@@H](NC(=O)[C@H](CC(N)=O)NC(=O)[C@@H]1CCCN1C(=O)[C@@H](NC(=O)[C@H](COP(=O)(O)O)NC(=O)[C@@H](NC(=O)[C@H](CO)NC(=O)[C@H](CCCNC(=N)N)NC(=O)[C@H](CCC(N)=O)NC(=O)[C@H](CCCNC(=N)N)NC(C)=O)[C@@H](C)O)[C@@H](C)O)C(C)C)C(N)=O [C-RAF (12-mer), RQRST{pS}TPNVHM] (Ac-RQRST[pS]TPNVHM-NH2; N-terminus and C-terminus assumed)
